Like-named read-outs stand apart in the source and are kept apart here.
What was measured:
Assay in all cases: biochemical
Assay type in all cases: binding
[1] = molecular target: HLA-DR DRB1*1501 (DR15) (Homo sapiens, UniProt P01903+P01911)
[2] = molecular target: HLA-DR DRB1*0101 (DR1) (Homo sapiens, UniProt P01903+P01911, A100R/D57E/F55L/F60I/F76Y/I96L/L162R/M171V/P40L/Q125E/R42F/V115G/Y59C); details: DRB1 *0101
[3] = molecular target: HLA-DR DRB1*1101 (DR11) (Homo sapiens, UniProt P01903+P01911, A100R/A169T/A87E/I96F/K41T/L162R/M171V/P40S/Q125H/Q178H/Q39Y/Q99D/R42S/S66Y/T262R/V115G/W38E)
[4] = molecular target: HLA-DR DRB5*0101 (DR51) (Homo sapiens, UniProt P01903+Q30154); details: read-out: DRB5 *0101
[5] = molecular target: HLA-DR DRB1*1302 (DR13) (Homo sapiens, UniProt P01903+P01911, A100E/A169T/K41T/L162R/M171V/P40S/Q125H/Q178H/Q39Y/Q99D/R42S/S66N/T262R/V115G/W38E/Y61H); details: read-out: DRBI *1302

Amino acid sequences for entries named in this document (tags omitted). Residues count along the entry.
UniProt Q30154, 30-266: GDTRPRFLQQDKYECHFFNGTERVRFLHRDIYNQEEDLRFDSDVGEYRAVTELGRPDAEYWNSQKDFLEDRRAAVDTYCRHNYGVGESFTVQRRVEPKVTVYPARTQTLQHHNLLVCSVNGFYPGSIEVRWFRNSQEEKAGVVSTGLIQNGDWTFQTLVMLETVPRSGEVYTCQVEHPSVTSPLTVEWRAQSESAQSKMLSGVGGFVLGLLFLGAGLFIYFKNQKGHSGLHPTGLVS

Compound	IC50 ([1]; DRBI *1501) [µM]	IC50 ([1]; read-out: DRBI *1501) [µM]	further results
CC[C@H](C)[C@H](NC(=O)[C@H](CCC(N)=O)NC(=O)[C@@H](N)CCCNC(=N)N)C(=O)N[C@@H](Cc1ccc(O)cc1)C(=O)N[C@H](C(=O)N[C@@H](C)C(=O)N[C@@H](C)C(=O)N[C@@H](Cc1ccccc1)C(=O)N[C@H](C(=O)N[C@H](C(=O)N[C@@H](CCC(N)=O)C(=O)N[C@@H](C)C(=O)N[C@@H](C)C(=O)N[C@@H](C)C(=O)N[C@@H](CCC(=O)O)C(=O)O)C(C)C)[C@@H](C)O)C(C)C	0.166	–	–
CC[C@H](C)[C@H](NC(=O)[C@H](CC(=O)O)NC(=O)[C@@H](NC(=O)[C@H](Cc1c[nH]cn1)NC(=O)[C@@H](NC(=O)[C@H](CO)NC(=O)[C@H](CCC(N)=O)NC(=O)[C@@H](NC(=O)[C@H](CS)NC(=O)[C@H](CC(C)C)NC(=O)[C@H](CCCNC(=N)N)NC(=O)[C@H](CC(C)C)NC(=O)[C@@H](N)[C@@H](C)O)C(C)C)[C@@H](C)O)C(C)C)C(=O)N[C@@H](CCCNC(=N)N)C(=O)N[C@H](C(=O)O)[C@@H](C)O	3.96	–	–
CC[C@H](C)[C@H](NC(=O)[C@@H](NC(=O)[C@H](CCCCN)NC(=O)[C@@H](N)Cc1ccc(O)cc1)[C@@H](C)O)C(=O)N[C@@H](C)C(=O)N[C@@H](Cc1ccc(O)cc1)C(=O)N[C@@H](CC(=O)O)C(=O)N[C@@H](CCC(=O)O)C(=O)N[C@@H](CCC(=O)O)C(=O)N[C@@H](C)C(=O)N[C@@H](CCCNC(=N)N)C(=O)N[C@@H](CCCNC(=N)N)C(=O)O	> 91	–	IC50 [2]: ≥ 50 µM; IC50 ([3]; DRB1 *1101): ≥ 200 µM
CC(C)C[C@H](NC(=O)[C@H](C)NC(=O)[C@H](CCC(=O)O)NC(=O)[C@@H](NC(=O)[C@H](CC(C)C)NC(=O)[C@H](CC(=O)O)NC(=O)[C@H](CO)NC(=O)CNC(=O)[C@H](CS)NC(=O)[C@H](CC(C)C)NC(=O)[C@H](Cc1c[nH]cn1)NC(=O)[C@H](CCC(N)=O)NC(=O)[C@H](CC(N)=O)NC(=O)[C@@H](NC(=O)[C@@H](N)Cc1ccccc1)C(C)C)C(C)C)C(=O)O [FVNQHLCGSDLVEAL]	9.68	–	–
DRTLMSAMTNLAALF	–	0.871	–
KKPLNEILIRCHCQ	–	1.87	IC50 [4]: 26.3 µM
VAQVRGGNIVFELANS	–	0.117	–
WTTCQSIAFPSKTSASIGSL	–	0.277	–
YLVTGERGFFYTKPT	–	–	IC50 [5]: 17.9 µM; IC50 ([3]; read-out: DRB1 *1101): 9.34 µM; IC50 [4]: 11.9 µM

Reference: patent US20060079453A1, “Hla binding peptides and their uses” (priority 2002, published 2006)
